Results from PMC6163981, “Novel and Selective Rhipicephalus microplus Triosephosphate Isomerase Inhibitors with Acaricidal Activity” (Veterinary Sciences, 2018).
pIC50: −log10 of the molar value. “And” between values parts separate entries of the source, which are not always exact repeats. Equal values may be shown once.

Sequences of proteins named here, by UniProt entry; tags and fusion partners are left off.
UniProt P60174, whole entry, looked up: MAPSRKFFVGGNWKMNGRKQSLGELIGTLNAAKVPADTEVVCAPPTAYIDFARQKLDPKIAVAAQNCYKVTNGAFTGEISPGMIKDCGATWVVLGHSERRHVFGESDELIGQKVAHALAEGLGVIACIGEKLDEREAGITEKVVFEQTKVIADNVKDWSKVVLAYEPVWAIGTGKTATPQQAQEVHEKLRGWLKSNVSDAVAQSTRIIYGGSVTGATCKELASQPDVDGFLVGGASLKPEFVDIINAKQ

How the values were obtained:
[1] = biological target: Homo sapiens TIM (HsTIM, HmTIM [sic] in Table 1) (Homo sapiens, UniProt P60174); assay: Human TIM inhibition (selectivity); assay type: biochemical
BME26 embryonic cells = assay: MTT viability assay on BME26 embryonic cells; assay type: cell-based, Rhipicephalus microplus
[2] = tested on: Rhipicephalus microplus fully engorged females; assay: Adults immersion test
[3] = tested on: Rhipicephalus microplus partially engorged female ticks; assay: Injection of inhibitor into partially engorged females during artificial capillary feeding

O=[N+]([O-])c1cccc2no[n+]([O-])c12
% Inhibition at 100 µM HmTIM [1]: 0%
cell viability at 100 µM (BME26 embryonic cells; 24 h, 100 µM): 20%
pIC50 (BME26 embryonic cells; read-out: IC50 in BME26 cells (In vitro anti-R. microplus), 24 h): 4.42 and 4.52
Larval Total Weight ([2]; 500 ppm): 60 ± 39 mg
reduction of the eclosion rate compared to vehicle ([2]; 500 ppm and 2000 ppm): 16%
Larval Total Weight ([2]; 2000 ppm): 63 ± 33 mg
Eclosion ([3]; 2 µL of 1 mM in DMSO injected): no egg hatching
Oviposition/Total ([3]; 2 µL of 1 mM in DMSO injected (2 nmol/tick), females that did not lay eggs considered dead): NO 0/13
